Patent US7115637B2

Chains of the proteins cited; added tags and fusions are not shown.
UniProt Q16539, whole entry: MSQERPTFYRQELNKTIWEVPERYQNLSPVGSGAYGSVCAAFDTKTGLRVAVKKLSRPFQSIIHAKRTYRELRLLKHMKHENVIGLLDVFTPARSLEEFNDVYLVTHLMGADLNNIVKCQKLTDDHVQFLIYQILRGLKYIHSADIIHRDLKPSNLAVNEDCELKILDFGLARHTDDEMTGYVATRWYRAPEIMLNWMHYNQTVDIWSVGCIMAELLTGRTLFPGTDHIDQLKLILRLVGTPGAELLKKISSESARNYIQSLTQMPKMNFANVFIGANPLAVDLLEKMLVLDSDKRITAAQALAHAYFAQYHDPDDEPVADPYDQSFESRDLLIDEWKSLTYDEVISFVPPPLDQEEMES

Tests used:
[1] = tested on: TNF production in LPS-stimulated PBMCs; assay: Inhibition of TNF production in LPS-stimulated PBMCs; conditions: read-out: Cell TNF IC50, 4 ng/ml LPS, ELISA TNF-α
Method: (§1) C. Inhibition of IL-1, TNF, IL-6 and IL-8 Production in LPS-Stimulated PBMCs
(§2) Inhibitors were serially diluted in DMSO from a 20 mM stock. At least 6 serial dilutions were prepared. Then 4× inhibitor stocks were prepared by adding 4 μl of an inhibitor dilution to 1 ml of RPMI1640 medium/10% fetal bovine serum. The 4× inhibitor stocks contained inhibitor at concentrations of 80 μM, 32 μM, 12.8 μM, 5.12 μM, 2.048 μM, 0.819 μM, 0.328 μM, 0.131 μM, 0.052 μM, 0.021 μM etc. The 4× inhibitor stocks were pre-warmed at 37° C. until use.
(§3) Fresh human blood buffy cells were separated from other cells in a Vacutainer CPT from Becton & Dickinson (containing 4 ml blood and enough DPBS without Mg^2+/Ca^2+ to fill the tube) by centrifugation at 1500×g for 15 min. […] The total cell number was determined using a Neubauer Cell Chamber and the cells were adjusted to a concentration of 4.8×10^6 cells/ml in cell culture medium (RPMI1640 supplemented with 10% fetal bovine serum). […]
(§4) The next day the cells were mixed on a shaker for 3–5 minutes before centrifugation at 500×g for 5 minutes. Cell culture supernatants were harvested and analyzed by ELISA for levels of IL-1b (R & D Systems, Quantikine kits, #DBL50), TNF-α (BioSource, #KHC3012), IL-6 (Endogen, #EH2-IL6) and IL-8 (Endogen, #EH2-IL8) according to the instructions of the manufacturer. […]

[2] = tested on: TNF production in whole blood; assay: Inhibition of TNF production in LPS-stimulated whole blood; conditions: read-out: WB TNF IC50, 4 ng/ml LPS, ELISA TNF-α
Method: as §1, §2
Alternatively, whole blood containing an anti-coagulant was used directly in the assay.
100 μl of cell suspension or whole blood were placed in each well of a 96-well cell culture plate. Then 50 μl of the 4× inhibitor stock was added to the cells. Finally, 50 μl of a lipopolysaccharide (LPS) working stock solution (16 ng/ml in cell culture medium) was added to give a final concentration of 4 ng/ml LPS in the assay. […]
as §4

activated p38 = activated p38 (Homo sapiens, UniProt Q16539); assay: Inhibition of phosphorylation of EGF receptor peptide (kinase assay); conditions: read-out: Kinase IC50; activated p38 5 nM, EGF receptor peptide 200 μM, ATP 100 μM, HPLC
Method: A. Inhibition of Phosphorylation of EGF Receptor Peptide
This assay was carried out in the presence of 10 mM MgCl2, 25 mM β-glycerophosphate, 10% glycerol and 100 mM HEPES buffer at pH 7.6. For a typical IC50 determination, a stock solution was prepared containing all of the above components and activated p38 (5 nM). The stock solution was aliquotted into vials. A fixed volume of DMSO or inhibitor in DMSO (final concentration of DMSO in reaction was 5%) was introduced to each vial, mixed and incubated for 15 minutes at room temperature. EGF receptor peptide, […], a phosphoryl acceptor in p38-catalyzed kinase reaction (1), was added to each vial to a final concentration of 200 μM. The kinase reaction was initiated with ATP (100 μM) and the vials were incubated at 30° C. After 30 minutes, the reactions were quenched with equal volume of 10% trifluoroacetic acid (TFA).
The phosphorylated peptide was quantified by HPLC analysis. Separation of phosphorylated peptide from the unphosphorylated peptide was achieved on a reverse phase column (Deltapak, 5 μm, C18 100D, Part no. 011795) with a binary gradient of water and acteonitrile, each containing 0.1% TFA. IC50 (concentration of inhibitor yielding 50% inhibition) was determined by plotting the percent (%) activity remaining against inhibitor concentration.

[3] = tested on: IL-1 production in LPS-stimulated PBMCs; assay: Inhibition of IL-1 production in LPS-stimulated PBMCs; conditions: read-out: Cell IL-1 IC50, 4 ng/ml LPS, ELISA IL-1b
Method: as §1, §2, §3, §4

Structure (SMILES) | IC50 [1] | IC50 [2] | IC50 (activated p38) | IC50 [3]
Cc1cc(F)ccc1-c1nc(N(C(N)=O)c2c(F)cccc2F)ccc1CO | 10 nM | 90 nM | – | –
Cc1cc(F)ccc1-c1nc(N(C(N)=O)c2c(Cl)cccc2Cl)ccc1CO | 50 nM | – | 2 nM | 20 nM
